CycPeptMPDB entries from one study

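Conditions beyond the assay type are not listed; see the original paper. Other peptides of the study may be missing here. Entries at the database's floor value (log10 P of -10) are not listed.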

PAMPA is the parallel artificial membrane permeability assay, which has no cells and reads passive diffusion.
Permeability is given as log10 of P in cm/s; higher (less negative) is more permeable.

For CC(=O)N1CCC[C@H]1C(=O)N[C@@H]1C(=O)N(C)[C@H](CC(C)C)C(=O)N[C@H](CC(C)C)C(=O)N[C@H](CC(C)C)C(=O)N(C)[C@H](CC(C)C)C(=O)N(C)[C@H](C)C(=O)N[C@@H](CC(C)C)C(=O)N2CCC[C@@H]2C(=O)O[C@@H]1C the data give PAMPA -7.13 (log10 cm/s). CC(=O)N1CCC[C@H]1C(=O)N(C)[C@@H](CC(C)C)C(=O)N[C@@H]1C(=O)N(C)[C@@H](CC(C)C)C(=O)N[C@@H](CC(C)C)C(=O)N[C@H](CC(C)C)C(=O)N(C)[C@H](C)C(=O)N[C@H](CC(C)C)C(=O)N2CCC[C@H]2C(=O)O[C@@H]1C is reported with PAMPA -7.02 (log10 cm/s). CC(=O)N1CCC[C@H]1C(=O)N(C)[C@@H](CC(C)C)C(=O)N[C@@H]1C(=O)N[C@H](CC(C)C)C(=O)N(C)[C@@H](CC(C)C)C(=O)N[C@@H](CC(C)C)C(=O)N(C)[C@H](C)C(=O)N[C@H](CC(C)C)C(=O)N2CCC[C@@H]2C(=O)O[C@@H]1C has PAMPA -5.83 (log10 cm/s). For CC(=O)N1CCC[C@@H]1C(=O)N(C)[C@@H](CC(C)C)C(=O)N[C@@H]1C(=O)N[C@H](CC(C)C)C(=O)N[C@H](CC(C)C)C(=O)N(C)[C@@H](CC(C)C)C(=O)N(C)[C@@H](C)C(=O)N[C@H](CC(C)C)C(=O)N2CCC[C@@H]2C(=O)O[C@@H]1C the data give PAMPA -5.42 (log10 cm/s). The entry for CC(=O)N1CCC[C@H]1C(=O)N[C@@H]1C(=O)N(C)[C@H](CC(C)C)C(=O)N[C@@H](CC(C)C)C(=O)N[C@@H](CC(C)C)C(=O)N[C@@H](CC(C)C)C(=O)N[C@@H](C)C(=O)N[C@@H](CC(C)C)C(=O)N2CCC[C@@H]2C(=O)O[C@@H]1C lists PAMPA -6.81 (log10 cm/s).

The entry for CC(=O)N1CCC[C@@H]1C(=O)N(C)[C@@H](CC(C)C)C(=O)N[C@@H]1C(=O)N(C)[C@H](CC(C)C)C(=O)N[C@H](CC(C)C)C(=O)N[C@H](CC(C)C)C(=O)N[C@@H](C)C(=O)N[C@@H](CC(C)C)C(=O)N2CCC[C@H]2C(=O)O[C@@H]1C lists PAMPA -6.50 (log10 cm/s). Listed for CC(=O)N1CCC[C@@H]1C(=O)N(C)[C@@H](CC(C)C)C(=O)N[C@@H]1C(=O)N(C)[C@@H](CC(C)C)C(=O)N[C@@H](CC(C)C)C(=O)N(C)[C@@H](CC(C)C)C(=O)N(C)[C@@H](C)C(=O)N[C@H](CC(C)C)C(=O)N2CCC[C@@H]2C(=O)O[C@@H]1C: PAMPA -5.52 (log10 cm/s). The entry for CC(=O)N1CCC[C@@H]1C(=O)N(C)[C@@H](CC(C)C)C(=O)N[C@@H]1C(=O)N[C@@H](CC(C)C)C(=O)N[C@H](CC(C)C)C(=O)N[C@@H](CC(C)C)C(=O)N(C)[C@H](C)C(=O)N[C@@H](CC(C)C)C(=O)N2CCC[C@@H]2C(=O)O[C@@H]1C lists PAMPA -6.17 (log10 cm/s). CC(=O)N1CCC[C@H]1C(=O)N(C)[C@H](CC(C)C)C(=O)N[C@@H]1C(=O)N(C)[C@@H](CC(C)C)C(=O)N[C@@H](CC(C)C)C(=O)N[C@@H](CC(C)C)C(=O)N(C)[C@@H](C)C(=O)N[C@H](CC(C)C)C(=O)N2CCC[C@@H]2C(=O)O[C@@H]1C is reported with PAMPA -5.78 (log10 cm/s). The entry for CC(=O)N1CCC[C@@H]1C(=O)N(C)[C@@H](CC(C)C)C(=O)N[C@@H]1C(=O)N(C)[C@@H](CC(C)C)C(=O)N[C@H](CC(C)C)C(=O)N(C)[C@H](CC(C)C)C(=O)N[C@H](C)C(=O)N[C@@H](CC(C)C)C(=O)N2CCC[C@H]2C(=O)O[C@@H]1C lists PAMPA -5.93 (log10 cm/s).

Listed for CC(=O)N1CCC[C@H]1C(=O)N(C)[C@H](CC(C)C)C(=O)N[C@@H]1C(=O)N[C@H](CC(C)C)C(=O)N[C@@H](CC(C)C)C(=O)N(C)[C@H](CC(C)C)C(=O)N[C@H](C)C(=O)N[C@@H](CC(C)C)C(=O)N2CCC[C@@H]2C(=O)O[C@@H]1C: PAMPA -5.23 (log10 cm/s). For CC(=O)N1CCC[C@H]1C(=O)N[C@@H]1C(=O)N[C@H](CC(C)C)C(=O)N(C)[C@@H](CC(C)C)C(=O)N[C@@H](CC(C)C)C(=O)N(C)[C@H](CC(C)C)C(=O)N[C@H](C)C(=O)N[C@@H](CC(C)C)C(=O)N2CCC[C@@H]2C(=O)O[C@@H]1C the data give PAMPA -5.25 (log10 cm/s).

A selection of 2 entries from above:

| compound | PAMPA (log10 cm/s) |
|---|---|
| CC(=O)N1CCC[C@H]1C(=O)N(C)[C@@H](CC(C)C)C(=O)N[C@@H]1C(=O)N[C@H](CC(C)C)C(=O)N(C)[C@@H](CC(C)C)C(=O)N[C@@H](CC(C)C)C(=O)N(C)[C@H](C)C(=O)N[C@H](CC(C)C)C(=O)N2CCC[C@@H]2C(=O)O[C@@H]1C | -5.83 |
| CC(=O)N1CCC[C@H]1C(=O)N[C@@H]1C(=O)N(C)[C@H](CC(C)C)C(=O)N[C@H](CC(C)C)C(=O)N[C@H](CC(C)C)C(=O)N(C)[C@H](CC(C)C)C(=O)N(C)[C@H](C)C(=O)N[C@@H](CC(C)C)C(=O)N2CCC[C@@H]2C(=O)O[C@@H]1C | -7.13 |

Data: CycPeptMPDB; original report Kelly et al. 2021, doi:10.1021/jacs.0c06115.